Data on one compound can be found in paper PMC9681730, “DeepPROTACs is a deep learning-based targeted degradation predictor for PROTACs” (Nature Communications, 2022).

Chains of the proteins cited; added tags and fusions are not shown. Residues count along the entry.
UniProt P03372, 298-554 limits assumed: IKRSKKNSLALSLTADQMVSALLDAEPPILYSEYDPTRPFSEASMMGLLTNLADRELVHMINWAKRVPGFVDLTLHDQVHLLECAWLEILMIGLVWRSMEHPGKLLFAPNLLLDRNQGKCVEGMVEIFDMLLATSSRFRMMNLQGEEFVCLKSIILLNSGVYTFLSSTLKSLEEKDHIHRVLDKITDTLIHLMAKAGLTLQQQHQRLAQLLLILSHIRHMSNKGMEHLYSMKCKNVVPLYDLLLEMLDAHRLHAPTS

The target of the test is ERα-LBD (estrogen receptor, ER) (Homo sapiens, UniProt P03372). Briefly: ITC (reverse titration, purified ERα-LBD).

Structures are written as SMILES.

In turn, `Cc1ncsc1-c1ccc(CNC(=O)[C@@H]2C[C@H](O)CN2C(=O)[C@@H](NC(=O)CCCCCCCCCC(=O)NCCOc2ccc(C(=C(CCCl)c3ccccc3)c3ccc(O)cc3)cc2)C(C)(C)C)cc1` registered a Kd of 2.82 µM.

For orientation: Kd means a measure of binding affinity in units of concentration. High values mean a looser complex, low ones a tighter complex.
